Source: patent US10085933B2, “Cosmetic use of an essential oil of Laserpitium siler L. for keratin materials” (L'OREAL, priority 2013, dated 2018)
Values joined by “and” are separate entries in the source; they are usually repeats but may differ in a detail not shown here. Equal values may be shown once.

Tested on: dermal capillaries of normal human skin maintained alive
Assay: Vascular modulation (vasodilation/vasoconstriction) in a model of normal human skin maintained alive; histological morphometry of dermal capillaries
Type: cell-based
Details: 5 μM CGRP in culture medium, 48 hours organ culture
From the text: The object of this study is to analyse the effect on vascular modulation, namely vasodilation or vasoconstriction, of the essential oil of Laserpitium siler L. evaluated in a model of normal human skin maintained alive.
Calcitonin-gene related peptide (CGRP), which induces vasodilation, and noradrenalin, which induces vasoconstriction, are used as positive controls.
The analyses are histological by morphometric quantification of the calibre of the dermal capillaries and semi-quantitative evaluation of the oedema.
Fragments of normal human skin are obtained from a plastic surgery. They are placed in inserts, which are themselves positioned on culture wells. Culture medium specifically adapted to survival maintenance is added to the bottom of the wells, a passage being made by slow diffusion between the two compartments via a porous membrane (3 μm). […]
The skin fragments are fixed in Bouin liquid and included in paraffin. After staining with haemalum-eosin, two criteria are evaluated on the dermis: the oedema and the calibre of the capillaries.
After staining with haemalum-eosin, the vascular dilation is evaluated by counting the number of dilated blood vessels on the entire histological slice (16 fields at magnification 40). […]
A mean is calculated for each parameter from the results obtained on the six skin samples. […]

## Calcitonin-gene related peptide [CGRP]
Mean of six skin samples, control skin 74.8 ± 20.8
  percentage of dilated vessels (dilated capillaries): 90.5% and 90.5 ± 9.38%
Control skin 153.6 ± 74.4
  mean area occupied by the lumen of the blood vessels (capillaries) in the dermis: 242.7 μm^2 and 242.7 ± 42.8 μm^2
